# Laboratory results as given in patent publication US7994123B2, “Hybrid proteins with ErbB4 extracellular domain and neuregulin heparin-binding domain for targeting” (Wayne State University, priority 2004, dated 2011).
# Columns and labels:
# [1] = tested on: MCF10CA1 human breast cancer cells; experiment: Cell proliferation assay, MCF10CA1; assay type: cell-based; conditions: IgB4 conditioned media, 10 μM AG1478 or 100 μg/ml Trastuzumab
# Procedure: Cell proliferation assays: All three breast epithelial cell lines were plated at 5000 cells/well in 48 well plates in regular MCF10A/AT or MCF10CA1 media. After incubation for 3 days, 1 nM NRG in MCF10A/AT media or just MCF10A/AT media alone were applied to the cells for another 24 hours followed by washing them with culture media and then counting cell numbers using an hemocytometer on the 4th, 5th, 6th, 7th and 8th day.
# (§1) IgB4, AG1478 and Trastuzumab treatments: NRG antagonist IgB4-stablely transfected HEK 293 cells were cultured to 80% confluent before Optimem I was applied to the cells. After 2 days, the Optimem I conditioned media was concentrated by Centricon at 4° C. 40 μl of IgB4 conditioned media or 10 μM of tyrosine kinase inhibitor AG1478 were combined with […] 1 nM NRG in MCF10A/AT media for 15 min at room temperature before being added to MCF10CA1 cells for 30 min treatment. For Trastuzumab experiment, the MCF10CA1 cells were pre-treated with 100 μg/ml Trastuzumab in MCF10CA1 media for 24 hours before the cells were treated with 1 nM NRG in the presence of 100 μg/ml Trastuzumab in MCF10A/AT media for 30 min. The amount of each antagonist was determined empirically based on its ability to block NRG-induced activation of L6 cells.
# [2] = tested on: erbB receptor phosphorylation (p185) in MCF10CA1 cells; experiment: p185 receptor phosphorylation western blot, MCF10CA1; assay type: cell-based, human; conditions: IgB4 conditioned media
# Procedure: Western blots and L6 muscle assays: P185 receptor phosphorylation of the three cell lines was measured by phosphotyrosine western blots after NRG treatment for 30 min on 3 day old cultures as described in WO 03/012045 and Li Q & Loeb J A (2001) J Biol Chem; 276:38068-75. In experiments to block NRG-induced receptor activation, 1 nM of NRG with or without blocking reagents (IgB4, 10 μM AG1478 or 100 μg/ml Trastuzumab) on 3 day old MCF10CA1 cells for 30 min at 37° C. in a 5% CO2 incubator. The media was discarded and phosphotyrosine western blots were performed as above. The membranes were stripped and reprobed with polyclonal rabbit erbB2 for the detection of overall erbB2 protein that was used for quantitation.
# as §1, with “For Trastuzumab experiment, the MCF10CA1 cells were pre-treated with 100 μg/ml Trastuzumab in MCF10CA1 media for 24 hours before the cells were treated with 1 nM NRG in the presence of 100 μg/ml Trastuzumab in MCF10A/AT media for 30 min.” left out
substance,measurement,setting,value
Trastuzumab: humanized mAb that binds to erbB2,MCF10CA1 proliferation with exogenous NRG,[1]; 1 nM NRG,reduced cell proliferation
same,MCF10CA1 growth rate without exogenous NRG,[1],no effect on proliferation
same,exogenous NRG-induced p185 erbB receptor phosphorylation,"[2]; 1 nM NRG, 30 min, AG1478 or 100 μg/ml Trastuzumab (24 h pre-treatment)",response to exogenous NRG was reduced
same,basal p185 erbB receptor phosphorylation,"[2]; no exogenous NRG, 10 μM AG1478 or 100 μg/ml Trastuzumab (24 h pre-treatment)",not affected
